# Biological target: Metabotropic glutamate receptor 2 (Rattus norvegicus, UniProt P31421)
# By UniProt entry, the sequences of proteins in these tests, tags left out. Where a name states a change or a piece, a line headed by the entry shows the natural chain unless it says otherwise.
# UniProt P31421: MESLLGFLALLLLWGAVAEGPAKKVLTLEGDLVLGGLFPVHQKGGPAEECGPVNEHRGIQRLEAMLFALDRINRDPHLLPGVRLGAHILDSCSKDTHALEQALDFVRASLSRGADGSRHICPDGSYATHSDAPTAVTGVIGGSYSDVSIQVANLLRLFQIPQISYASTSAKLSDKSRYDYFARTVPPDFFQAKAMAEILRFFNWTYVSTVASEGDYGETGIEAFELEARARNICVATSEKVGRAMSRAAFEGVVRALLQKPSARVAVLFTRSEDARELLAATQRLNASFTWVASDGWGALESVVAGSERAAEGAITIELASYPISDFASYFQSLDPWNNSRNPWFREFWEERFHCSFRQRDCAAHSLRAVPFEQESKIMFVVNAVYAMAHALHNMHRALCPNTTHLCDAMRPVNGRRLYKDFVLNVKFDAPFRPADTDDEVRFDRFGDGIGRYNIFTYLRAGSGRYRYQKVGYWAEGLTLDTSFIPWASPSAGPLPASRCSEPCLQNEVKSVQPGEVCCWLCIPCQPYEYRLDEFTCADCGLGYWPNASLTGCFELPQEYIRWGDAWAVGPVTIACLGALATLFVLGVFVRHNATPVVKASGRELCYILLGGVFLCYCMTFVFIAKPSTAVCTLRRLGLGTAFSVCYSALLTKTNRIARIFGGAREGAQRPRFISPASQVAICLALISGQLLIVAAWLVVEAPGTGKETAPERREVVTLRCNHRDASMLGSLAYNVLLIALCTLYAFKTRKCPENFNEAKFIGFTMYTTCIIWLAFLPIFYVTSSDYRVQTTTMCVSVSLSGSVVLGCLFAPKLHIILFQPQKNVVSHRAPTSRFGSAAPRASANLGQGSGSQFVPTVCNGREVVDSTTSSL
# Assay: Agonist activity at mGLUR2 in rat cerebral cortex assessed as inhibition of forskolin-stimulated cAMP production
# Assay type: functional, tissue-based
structure (smiles),measurement,value
N[C@@]1(C(=O)O)CC[C@H]2[C@H](C(=O)O)[C@H]21,EC50,11.1 nM
